# Binding of CDR-mutated scFvs to a peptide of the spike HR2 region

Target peptide (SARS-CoV-2 spike, HR2 region): PDVDLGDISGINAS

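The parent was found by panning a naive human phage display library on the peptide. The library (AAYL52) carries one to three amino acid substitutions per variant, with no insertions or deletions. The scFvs were displayed on barcoded MATa yeast, the peptide on MATalpha yeast. Pairs that bind mate more often; barcode pairs of the diploids are counted by sequencing. The ratio of observed to expected reads was calibrated, replicate by replicate, on BCL2-family standards whose Kd was known from biolayer interferometry. There are three technical replicates.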

Each scFv is VH, the linker GGGGSGGGGSGGGGS, VL, as in the parent Ab-95, and differs from it in the CDRs of the light chain only.
VH: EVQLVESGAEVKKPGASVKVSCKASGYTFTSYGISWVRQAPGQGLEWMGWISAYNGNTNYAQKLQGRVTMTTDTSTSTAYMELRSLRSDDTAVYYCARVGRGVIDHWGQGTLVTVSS
VL: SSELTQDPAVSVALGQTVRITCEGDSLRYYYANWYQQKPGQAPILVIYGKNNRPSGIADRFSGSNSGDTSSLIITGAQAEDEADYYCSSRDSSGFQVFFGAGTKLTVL

Positions count from residue 1 of the parent VL; Y30L puts L in place of Y. Affinities are written as log10 Kd with Kd in nM; a lower number is a better binder. Where no diploid with the target was found in that replicate, the entry reads "nd": below detection, most likely a poor binder, though not proof of it.

Variant Y30L S88W F95W showed 4.06, 3.70, 4.42 (controls 2 of 9).
Variant E23L L27F showed 2.81, 2.79, 3.63 (controls 2 of 9).
Variant Y31K P54A V97Q showed 2.82, 2.67, 2.75 (controls 4 of 9).
Variant Y29M Y31A showed 2.25, 2.02, 2.07 (controls 3 of 9).
Variant N51F F95E showed 2.90, 3.60, 3.37 (controls 4 of 9).
Variant S26N K50F S89M showed 4.77, 5.28, nd (controls 5 of 9).
Variant N52Y R90E D91Y showed nd, nd, nd (controls 0 of 9).
Variant S55E D91V showed nd, nd, nd (controls 0 of 9).
Variant P54L S89E S92E showed 3.20, 5.28, 3.09 (controls 0 of 9).
Variant A32C N51D D91Q showed nd, 5.00, 3.07 (controls 1 of 9).
Variant P54V D91A G94V showed 2.53, 3.25, 2.52 (controls 0 of 9).
Variant E23D G49V F98D showed 3.15, nd, nd (controls 0 of 9).
Variant S26I G49D G94S showed 3.85, nd, nd (controls 3 of 9).
Variant N33L V97I showed nd, nd, nd (controls 2 of 9).
Variant R28Y K50C S88A showed nd, 3.26, nd (controls 1 of 9).
Variant L27D G49V R90F showed 4.04, nd, nd (controls 1 of 9).
Variant P54T S89V G94K showed 2.87, 3.13, 2.37 (controls 5 of 9).
Variant G49Y P54N S55R showed 2.97, 2.71, nd (controls 0 of 9).
Variant Y30A N33M S92E showed 2.17, 2.09, 1.49 (controls 2 of 9).
Variant N52V G94H showed 2.02, 2.32, 2.13 (controls 4 of 9).
Variant N33H N52W G94N showed nd, nd, nd (controls 4 of 9).
Variant Y31A R53W S89N showed 3.21, 2.92, 3.04 (controls 1 of 9).
Variant Y29V S93I F98P showed 3.65, 4.88, nd (controls 2 of 9).
Variant S26C L27Y A32C showed nd, nd, nd (controls 0 of 9).
Variant D25W P54I V97E showed 3.72, 4.00, 3.44 (controls 4 of 9).
Variant Y30E A32C showed 1.76, 1.80, 1.71 (controls 3 of 9).
Variant A32T G49W N51P showed nd, nd, 4.10 (controls 1 of 9).
Variant N51L F95N V97N showed 3.09, nd, nd (controls 3 of 9).
Variant N33E N51Y G94K showed 3.64, 3.36, nd (controls 5 of 9).
Variant E23S D25Q K50E showed nd, nd, nd (controls 1 of 9).
Variant E23I R28Q S88V showed 2.93, 3.87, 3.93 (controls 4 of 9).
Variant Y31R P54E F98G showed 3.04, 2.41, 2.36 (controls 1 of 9).
Variant K50G S93W F98N showed 2.56, nd, nd (controls 1 of 9).
Variant S26F F98C showed 2.64, 2.45, 2.21 (controls 0 of 9).
Variant Y29M N52W P54T showed 2.58, nd, nd (controls 1 of 9).
Variant R28S R53H V97C showed nd, nd, 3.91 (controls 1 of 9).
Variant P54S R90T S93H showed 2.65, 2.26, 1.51 (controls 2 of 9).
Variant K50G N51G N52P showed 2.75, 2.60, 3.30 (controls 5 of 9).
Variant S26E R28W Y29H showed 2.28, 2.96, 2.68 (controls 1 of 9).
Variant N52E D91K Q96R showed 4.04, nd, nd (controls 1 of 9).
Variant D25G N52F R90L showed 2.55, 3.35, 1.99 (controls 2 of 9).
Variant Y31L S92H G94E showed 2.68, 2.46, 2.27 (controls 5 of 9).
Variant E23F S89L showed 2.94, 3.78, 4.35 (controls 4 of 9).

4 of these entries, quoted again:

changes,"log10 Kd, replicates",empty controls
A32C N51D D91Q,"nd, 5.00, 3.07",1 of 9
G49Y P54N S55R,"2.97, 2.71, nd",0 of 9
K50G S93W F98N,"2.56, nd, nd",1 of 9
R28S R53H V97C,"nd, nd, 3.91",1 of 9

In this assay the parent's reference entry averaged 2.31; its copy inside this library read 2.25. Nonspecific signal, from three strains lacking the peptide, appeared in 28% of pairings of library AAYL52, centred on 3.91 (5% of these signals below 2.90); values are not corrected for it. For each scFv, signals with the empty controls are counted beside the result.

Source: Engelhart et al. 2022 (doi:10.1038/s41597-022-01779-4), MIT Lincoln Laboratory and A-Alpha Bio; data file from the FLAb repository.